Experiments:
[1] = biological target: T1, HLA-A11.01 (Homo sapiens, UniProt P04439, A114D/F33Y/S129P); experiment: Class I MHC peptide binding stability (pMHC-I dissociation, 125I-labeled light chain); settings: HLA Allele A11.01; time for half of the complexes to dissociate at 37° C.
T1 construct: made in house; host or cells: E. coli

[2] = biological target: HLA-A03.01 (Homo sapiens, UniProt P04439); experiment: as above; parameters: made in house; host or cells: E. coli; settings: HLA Allele A03.01; time for half of the complexes to dissociate at 37° C.

SMILES: CC(C)[C@H](N)C(=O)N[C@H](C(=O)N[C@H](C(=O)NCC(=O)N[C@@H](C)C(=O)N[C@@H](CS)C(=O)NCC(=O)N[C@H](C(=O)NCC(=O)N[C@@H](CCCCN)C(=O)O)C(C)C)C(C)C)C(C)C
- Measured stability [1]: 15.7 h
- Measured stability [2]: 2.5 h

— US20220282217A1, “COMPOSITIONS AND METHODS FOR PREPARING T CELL COMPOSITIONS AND USES THEREOF” (priority 2019, published 2022)
